Laboratory results from patent publication US11925655B2, “FAP-activated therapeutic agents, and uses related thereto” (Bach Biosciences, LLC, priority 2014, dated 2024).

Molecular target: T1, FAP (Homo sapiens, UniProt Q12884)
T1 sequence (Q12884 1-760): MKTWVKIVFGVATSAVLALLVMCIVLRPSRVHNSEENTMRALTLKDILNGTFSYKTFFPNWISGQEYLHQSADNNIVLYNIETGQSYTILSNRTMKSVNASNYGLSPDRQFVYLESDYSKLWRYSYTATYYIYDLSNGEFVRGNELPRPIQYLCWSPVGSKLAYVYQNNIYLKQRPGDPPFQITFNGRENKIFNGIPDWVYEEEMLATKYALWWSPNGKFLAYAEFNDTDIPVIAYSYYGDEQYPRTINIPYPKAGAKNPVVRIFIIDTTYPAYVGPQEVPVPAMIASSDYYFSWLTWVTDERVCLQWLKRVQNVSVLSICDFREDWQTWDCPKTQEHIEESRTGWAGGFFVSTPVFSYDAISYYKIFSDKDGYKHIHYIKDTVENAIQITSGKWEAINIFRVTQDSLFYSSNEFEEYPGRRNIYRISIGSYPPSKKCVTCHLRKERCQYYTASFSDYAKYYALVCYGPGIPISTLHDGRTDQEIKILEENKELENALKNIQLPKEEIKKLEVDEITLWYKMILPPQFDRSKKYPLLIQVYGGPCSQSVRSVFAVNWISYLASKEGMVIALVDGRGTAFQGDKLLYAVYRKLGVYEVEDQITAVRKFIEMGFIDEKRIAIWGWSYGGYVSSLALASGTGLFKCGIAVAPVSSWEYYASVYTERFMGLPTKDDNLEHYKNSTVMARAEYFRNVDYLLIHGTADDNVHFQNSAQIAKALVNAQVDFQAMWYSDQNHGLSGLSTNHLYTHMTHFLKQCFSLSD
Assay: Rate of recombinant FAP activity on doxorubicin prodrugs
Settings: 37° C., 24 hours

In the case of `COc1cccc2c1C(=O)c1c(O)c3c(c(O)c1C2=O)C[C@@](O)(C(=O)CO)C[C@@H]3O[C@H]1C[C@H](NC(=O)[C@@H]2CCCN2C(=O)[C@@H](C)NC(=O)c2ccncc2)[C@H](O)[C@H](C)O1` [Compound 3099DOX], the “rate of yielding free doxorubicin versus z-GP-DOX or 3996DOX” value is reported as “significantly faster”.
